# Yeast mating assay 2: variants of the scFv Ab-95

Values reported by Engelhart et al. 2022, doi:10.1038/s41597-022-01779-4 (FLAb copy).

All variants were tested on one target, the spike HR2 peptide PDVDLGDISGINAS (SARS-CoV-2).

Parent: Ab-95, a human scFv built as VH, a 15-residue (Gly4Ser)3 linker, VL. Only the CDRs of the light chain vary.
VH: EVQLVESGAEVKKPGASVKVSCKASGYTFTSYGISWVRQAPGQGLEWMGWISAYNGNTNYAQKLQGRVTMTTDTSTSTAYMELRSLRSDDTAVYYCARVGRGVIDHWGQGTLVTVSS
VL: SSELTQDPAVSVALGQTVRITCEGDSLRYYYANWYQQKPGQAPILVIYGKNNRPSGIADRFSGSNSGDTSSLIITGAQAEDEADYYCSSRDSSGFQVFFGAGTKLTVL

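AAYL52 was designed without a model: most single CDR substitutions and a random sample of double and triple ones. AlphaSeq pools MATa yeast showing the antibodies with MATalpha yeast showing the peptide. Binding brings cells together so that they mate, and sequencing counts the barcode pairs among the diploids. The ratio of observed to expected reads was calibrated, replicate by replicate, on BCL2-family standards whose Kd was known from biolayer interferometry. Mating was done three times.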

Variants are written as CDR1, CDR2 and CDR3 of the light chain (limits as in the source). Parent: EGDSLRYYYAN, GKNNRPS, SSRDSSGFQVF.
Kd is apparent (estimated from mating counts) and averaged on the log scale over replicates with a signal. Smaller is tighter.
"nd" marks a missing value. The strain was present, yet no cells mated with the target were sequenced in any replicate, which points to weak or no binding.

CDR-L1 | CDR-L2 | CDR-L3 | Kd (apparent) | detected
EGDSLRYYYAN | GKCNEPS | SSRCSSGFQVF | 15 µM | 2 of 3
EGDSLRYYYAN | VKNNRTS | SSRDFSGFQVF | nd | 0 of 3
EGDSLRYYGAR | GKNKRPS | SSRDSSGFQVF | 140 nM | 3 of 3
EGDRLRYYYNN | GKNNRPS | SSRDSSGFQMF | 1.4 µM | 2 of 3
YGDSLRYYYAN | GKNERPL | SSRDSSGFQVF | 270 nM | 3 of 3
EWDSLRYYYAN | GKNNRPS | SSRDSYGFNVF | 18 µM | 1 of 3
EGDSRRYIQAN | GKNNRPS | SSRDSSGFQVF | 820 nM | 3 of 3
KGDSIRYYYAN | GKNNRPS | SSRRSSGFQVF | 47 µM | 1 of 3
EGDSLRKYYAN | GKNNRPS | SSAQSSGFQVF | 2.6 µM | 3 of 3
EEDSLRYYYAN | GKNNRPS | SSRDIGGFQVF | 8.9 µM | 1 of 3
EGDNLRYYYAN | YKNNRPK | SSRDSSGFQVF | 23 µM | 3 of 3
EGDSLRYYYAN | AKNNRPS | SSRDSSAFQVF | 2.2 µM | 3 of 3
EDDSLRYYYAN | GKNNRPS | SSRDSSGFQAF | 5.2 µM | 2 of 3
EGGSLRYYYAN | GKNNRPK | SSRDYSGFQVF | 670 nM | 3 of 3
EGDSLRYYYAN | GKINRPS | YSNDSSGFQVF | 1.4 µM | 1 of 3
EGDSLRDYYAN | GKNNRPS | SSEDSGGFQVF | nd | 0 of 3
EGNSLRFYYAN | GKNNRPS | SSRDSSGRQVF | 170 nM | 3 of 3
ECDSLRYYYAN | GKNMRPS | SSRDVSGFQVF | 280 nM | 3 of 3
YGDSLRYYRAN | GKNNNPS | SSRDSSGFQVF | 530 nM | 3 of 3
EGDSLRYYYGN | GKNKRPS | SSRDSSGFQAF | 32 µM | 1 of 3
EGDSLRYYYAN | GKNNRPS | SSRDSSQFQVV | nd | 0 of 3
EGDSLFGYYAN | EKNNRPS | SSRDSSGFQVF | 2.1 µM | 3 of 3
EGDSLRYYYAN | GKNNRPS | LSRDSFGFQVF | 2.1 µM | 3 of 3
EGDSLRDYYAN | GKNNRPS | SSRDSSGDQVA | 190 nM | 3 of 3
EGDSLLFYYAN | GKNNRPS | SSCDSSGFQVF | 8.9 µM | 3 of 3
QWDHLRYYYAN | GKNNRPS | SSRDSSGFQVF | 2.5 µM | 2 of 3
EGDSLRDYYAN | GKNNRKS | SSRDSSGFQVF | 180 nM | 3 of 3
EGDSLRYYYAN | GNYNRPS | SSRDSSGFQVF | 370 nM | 3 of 3
EGDSLRAYYAN | GVNNRPS | GSRDSSGFQVF | 2.9 µM | 3 of 3
EGDSLRYYAAN | GKNNRPS | SSRDSSGFQHH | 730 nM | 3 of 3
EGDSDRYYYAN | GKNNRPS | SRRDSQGFQVF | 100 µM | 2 of 3
EGDHYRYYYAN | TKNNRPS | SSRDSSGFQVF | 50 µM | 1 of 3
EGDSLRYYYAQ | GKNNRPS | SSRDSSGFQTR | nd | 0 of 3
EKDSLRWYYAN | GKNNRPS | YSRDSSGFQVF | 10 µM | 3 of 3
EGDSLRYYYAN | GKINRDS | SSRDHSGFQVF | 14 µM | 2 of 3

Second part, the sequence after the result:

Kd (apparent) | detected | CDR-L1 | CDR-L2 | CDR-L3
14 µM | 1 of 3 | EGDSLRYYYAN | GKNNRPV | GSLDSSGFQVF
920 nM | 3 of 3 | EGDCLRYYQAN | GKNARPS | SSRDSSGFQVF
4.1 µM | 3 of 3 | EGDSLRYCYAM | GKNNRPS | SSRDSEGFQVF
660 nM | 3 of 3 | EGDSLRYYLAN | GKNNRPM | SSRKSSGFQVF
nd | 0 of 3 | EGDDLRYYYAN | DKNNRPR | SSRDSSGFQVF
1.2 µM | 1 of 3 | EGDSLRYYYAN | GKNNRPS | SSRDSVNFQVF
6.5 µM | 3 of 3 | EGDSLRYYYRN | GKNNRPS | SSRDHSGFFVF
560 µM | 1 of 3 | EGDSLRSYYAR | GKNNRPS | SSRDWSGFQVF
12 µM | 3 of 3 | EGCSLRYYYAN | GKVNRPS | SSRDSSGFQVF
nd | 0 of 3 | EGDSLDYYYAN | PKNNRPS | SSRDSSGAQVF
12 µM | 2 of 3 | EGDSNRYWYAN | GKNNRPS | SSRDSSRFQVF
1.4 µM | 3 of 3 | EGDDLRYYYAN | GKNNRPS | SLRDSSGFQWF
40 nM | 3 of 3 | EADSLGYQYAN | GKNNRPS | SSRDSSGFQVF
nd | 0 of 3 | EGDSLRYYYAN | GMNNGPS | SSRDSSGFQVN
nd | 0 of 3 | EGDSLRYYEAN | GKNNRPS | SSRDSSIFYVF
8.7 µM | 2 of 3 | EGHSLRYYYAN | GKNNRPS | SSRDNSGNQVF
170 nM | 3 of 3 | EGDSLREVYAL | GKNNRPS | SSRDSSGFQVF
17 nM | 3 of 3 | EGDSLSGYMAN | GKNNRPS | SSRDSSGFQVF
100 nM | 3 of 3 | EADSLRYYYAG | GKNNVPS | SSRDSSGFQVF
nd | 0 of 3 | EGDSLRYYYAN | GKNNVPS | SSADSSGFQVF
110 nM | 3 of 3 | EGDSNRYYYAN | GKNNRPK | STRDSSGFQVF
3.7 µM | 3 of 3 | EGDSLRYYYAN | GKWQQPS | SSRDSSGFQVF
600 nM | 3 of 3 | EGDSLRYYCAN | GKNNIPS | SSRMSSGFQVF
nd | 0 of 3 | EGDSTRYYYAN | GKNNRPS | SSNDSSGFQVN
8.1 µM | 3 of 3 | EADSLRYYYAG | GKNNDPS | SSRDSSGFQVF
13 µM | 1 of 3 | EGDSLRYYYAP | GKNNRPN | SSRMSSGFQVF
nd | 0 of 3 | EGDSLYYYYAN | GKNNRPS | SSRISMGFQVF
58 µM | 2 of 3 | PGDSLRYYYAN | GTNNRPS | SSRDSSGFQGF
17 µM | 2 of 3 | EGDSWRYYYAN | GFNNRPS | SRRDSSGFQVF
1.4 µM | 3 of 3 | EGMSLRYYYAN | GKNNHPS | SCRDSSGFQVF
17 µM | 2 of 3 | EGDSLRYYYQN | GKNNRPS | SSQDSSGFQGF
4.8 µM | 3 of 3 | EGDYLRYYYAN | GKNNRMP | SSRDSSGFQVF
28 µM | 1 of 3 | EDWSLRYYYAN | GKNNRPS | SSRDSSGCQVF
170 nM | 3 of 3 | EGDSLRYYYAN | GKNNRPS | ASRDSSGTMVF
450 nM | 1 of 3 | EGDSLRFYYAN | GKNNRPD | SSRDWSGFQVF

Extract of 8 entries:

CDR-L1	CDR-L2	CDR-L3	Kd (apparent)	detected
EGDRLRYYYNN	GKNNRPS	SSRDSSGFQMF	1.4 µM	2 of 3
EGDSLDYYYAN	PKNNRPS	SSRDSSGAQVF	nd	0 of 3
EKDSLRWYYAN	GKNNRPS	YSRDSSGFQVF	10 µM	3 of 3
EGDSLSGYMAN	GKNNRPS	SSRDSSGFQVF	17 nM	3 of 3
EGDSLRYYYAN	GKINRPS	YSNDSSGFQVF	1.4 µM	1 of 3
EGDSLRDYYAN	GKNNRPS	SSRDSSGDQVA	190 nM	3 of 3
EGDNLRYYYAN	YKNNRPK	SSRDSSGFQVF	23 µM	3 of 3
YGDSLRYYRAN	GKNNNPS	SSRDSSGFQVF	530 nM	3 of 3

Three control strains display no target. For library AAYL52, 28% of the pairings with them gave a signal, with a median of 8.2 µM and one signal in twenty below 800 nM, so weak values seen in few replicates may be background.